Measured values published in publication PMC13165411, “The Differential Redox Resilience of Alvelestat and Sivelestat: A Mechanistic Hypothesis for Inhibitor Performance Under Oxidative Stress” (Molecules, 2026).

Key:
[1] = target: T1, Human neutrophil elastase (HNE) (Homo sapiens, UniProt P08246); assay: HNE colorimetric inhibition and steady-state kinetics assay (MeOSuc-Ala-Ala-Pro-Val-pNA), native conditions; assay type: biochemical; conditions: substrate 0.15 mM, inhibitor 0.1-100 μM, 37 °C, 45 min, read-out: IC50 against HNE activity
T1 construct: purchased Abcam
T1 sequence (P08246 30-267): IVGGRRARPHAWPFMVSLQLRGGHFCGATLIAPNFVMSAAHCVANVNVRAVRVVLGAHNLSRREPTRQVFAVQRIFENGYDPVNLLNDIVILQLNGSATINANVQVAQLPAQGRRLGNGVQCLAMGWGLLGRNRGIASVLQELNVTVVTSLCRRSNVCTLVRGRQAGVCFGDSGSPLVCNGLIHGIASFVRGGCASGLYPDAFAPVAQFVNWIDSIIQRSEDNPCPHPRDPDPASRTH
Experimental: HNE activity was assessed through a colorimetric assay based on the hydrolysis of the synthetic peptide substrate MeOSuc-Ala-Ala-Pro-Val-pNA [37]. To determine the steady-state kinetic parameters, 0.4 μg of HNE (corresponding to a final concentration of approximately 0.05 μM) were added to an incubation buffer consisting of 50 mM Tris-HCl, pH 7.8 containing 500 mM NaCl. The reaction was initiated by adding a fixed volume (20 µL) of intermediate substrate working solutions to the enzyme–buffer mixture, reaching a final reaction volume of 200 µL. These working solutions were prepared by diluting a 20 mM substrate stock solution in DMSO with incubation buffer, ensuring that the final DMSO concentration remained constant at 1% (v/v) across all tested substrate concentrations (ranging from 0.075 to 2.4 mM). […] The concentration of p-nitroaniline (p-NA) released into the supernatant was determined by measuring the absorbance at 410 nm. All assays were performed in triplicate, and the kinetic parameters were determined by fitting the experimental data to the Michaelis–Menten equation using GraphPad Prism 8.0 software (GraphPad Software, San Diego, CA, USA). […]
Subsequently, the inhibition constants (Ki) were determined independently from IC50 values by performing steady-state kinetic assays at varying concentrations of both substrate and inhibitors. […]

[2] = target: T2, HNE under oxidizing conditions (oxidized HNE) (Homo sapiens, UniProt P08246); assay: HNE inhibition assay under oxidizing conditions (HNE pre-incubated with 44 mM H2O2); assay type: biochemical; conditions: HNE pre-incubated with 44 mM H2O2, 60 min, 37 °C; substrate 0.15 mM
T2 construct: purchased Abcam
T2 sequence (P08246 30-247 limits assumed): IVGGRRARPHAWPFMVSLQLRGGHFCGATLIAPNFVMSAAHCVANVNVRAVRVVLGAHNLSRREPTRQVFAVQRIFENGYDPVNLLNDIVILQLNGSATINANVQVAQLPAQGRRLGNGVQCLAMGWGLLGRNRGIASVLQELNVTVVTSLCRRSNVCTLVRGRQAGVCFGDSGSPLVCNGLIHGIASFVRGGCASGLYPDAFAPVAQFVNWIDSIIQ
Experimental: HNE activity under oxidative conditions was determined using the colorimetric assay described above. Briefly, HNE was pre-incubated with 1 μL of 30% (w/v) H2O2 (final concentration 44 mM in a total reaction volume of 200 μL) for 60 min at 37 °C. The oxidative conditions used in this study were designed to promote cumulative oxidative modifications of HNE rather than to reproduce physiological ROS concentrations, allowing simulation of oxidative stress in chronically inflamed tissues where repeated ROS exposure leads to progressive protein oxidation. The kinetic parameters of oxidized HNE were determined as described above. Subsequently, inhibition assays were performed by initiating the reaction with substrate (final concentration 0.15 mM) in the presence of increasing concentrations of inhibitor (0.1–100 μM). The reaction mixtures were then incubated at 37 °C for 45 min and then terminated by the addition of 20 μL of 0.45 M TCA. Samples were cooled on ice, centrifuged, and analyzed as described in Section 2.4.
Residual enzymatic activity (%) was calculated relative to HNE activity in the absence of inhibitors, set as 100%. The lowest observed activity under the experimental conditions was taken as the maximal inhibition achieved within this assay range.

IC50 [1]: 850 ± 80 nM | IC50 [2]: > 100000 nM
SMILES: CC(C)(C)C(=O)Oc1ccc(S(=O)(=O)Nc2ccccc2C(=O)NCC(=O)O)cc1 [Sivelestat]
